Source: PubChem (ICCB-Longwood Screening Facility, Harvard Medical School)
The sample as a whole holds a higher share of hits than the screen did.
GIV Gai3 FP = blocks GIV peptide binding to rat Galpha-i3. P08753. Galpha-i3/FITC-GIV peptide fluorescence polarization, 90 min; stronger effect = lower value; scaled: aluminum fluoride 0%, vehicle 100%. percent of control (FP), % (test concentration not listed). actives 0.42% (n = 210,000). AID 1224905;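 active means replicate mean at 85% of control or lower, very high polarization wells dropped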;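 further: wells of about 15 µL received 100 nL stock; the first replicate is given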
Starred values were filed as active, the others as inactive.

molecule	GIV Gai3 FP
CCOC(=O)C1=C(C)N=c2s/c(=C\c3cc(Br)c(O)c(OC)c3)c(=O)n2C1c1ccc2c(c1)OCO2 (configuration not stated)	-56.8*
CCOC(=O)C1=C(C)N=c2s/c(=C\c3ccc(OC)c(OC)c3)c(=O)n2C1c1ccc2c(c1)OCO2 (configuration not stated)	101.4
COc1ccc(C2=NN(C(C)=O)C(c3cccc(OCc4cccc5ccccc45)c3)O2)cc1 (configuration not stated)	114.8
O=C(Nc1ccc(F)c(Cl)c1)N1CCN(c2ccc(=O)n(-c3ccc(F)cc3)n2)CC1	105.7
Cc1onc(-c2ccccc2)c1C(=O)N1CCN(S(=O)(=O)c2ccccc2)CC1	106.4
O=c1c(C=NCc2ccccc2)c(O)n(-c2ccccc2)c(=S)n1-c1ccccc1	116.7
O=S1(=O)NC(c2ccccc2)Nc2ccccc21 (configuration not stated)	106.0
CN(CCC#N)c1ccc(/C=C2\CC/C(=C\c3ccc(N(C)CCC#N)cc3)C2=O)cc1	-40.8*
CC(C)/C=C1\CC/C(=C\c2ccc(Cl)cc2)C1=O	102.6
COc1ccc(N=Cc2ccc(N(C)CCC#N)cc2)cc1	101.6
COc1ccc(/C=C2\CCC/C(=C\c3ccc(N(C)C)cc3)C2=O)cc1	106.0
CSc1ccc(/C=C2\CC/C(=C\c3ccc(SC)cc3)C2=O)cc1	171.5
CCN(CC)c1ccc(/C=C2\CC/C(=C\C(C)C)C2=O)cc1	-87.6*
O=S(=O)(NCc1nc2cccnc2n1C1CC1)c1ccc2c(c1)CCCC2	101.8
NC(=O)c1cnc2ncnn2c1N	101.8
O=C(c1cccs1)N1N=C(c2cccs2)CC1c1ccc(F)cc1 (configuration not stated)	104.4
Nc1ccc(O)cn1	100.2
CCCCc1cc(=O)oc2cc(C)cc(O)c12	98.7
CCCCCCc1cc2cc(C#N)c(=O)oc2cc1O	-3.8*
CCCCc1cc2c(=O)c(-c3cc4ccccc4o3)coc2cc1O	98.7
Cc1ccccc1-c1noc(Cn2c(=O)n(CCc3ccccc3)c(=O)c3sccc32)n1	102.1
Cn1cc(S(=O)(=O)N2CCc3ccccc32)cc1C(=O)N1CCCCCC1	110.1
N#CC1=C(N)Oc2cc(O)ccc2C1c1ccccc1 (configuration not stated)	103.8
N#CC1=C(N)SC(N)=C(C#N)C1c1ccccc1	-0.3*
N#CC1=C(N)OC2=C(CCc3ccccc32)C1c1ccccc1 (configuration not stated)	99.7
COc1cccc(C2=CC(c3ccccc3F)n3ncc(C(=O)Nc4cc(Cl)ccc4C)c3N2)c1 (configuration not stated)	100.8
COc1cccc(C2=CC(c3ccccc3F)n3ncc(C(=O)Nc4ccc(F)cc4)c3N2)c1 (configuration not stated)	-59.8*
COc1ccc(C2=CC(c3ccccc3F)n3ncc(C(=O)Nc4ccc(C)cc4)c3N2)cc1 (configuration not stated)	105.5
COc1ccccc1CNC(=O)CCC(=O)N1CCSc2ncccc21	106.2
CCN(CC)c1ccc2cc(-c3nc4sc5c(c4c(=O)[nH]3)CCC(C(C)(C)C)C5)c(=O)oc2c1 (configuration not stated)	-66.0*
CC(C)(C)C1CCc2c(sc3nc(-c4cc5cc(Br)ccc5oc4=O)[nH]c(=O)c23)C1 (configuration not stated)	96.6
CC(C)(C)C1CCc2c(sc3nc(-c4cc5ccccc5oc4=O)[nH]c(=O)c23)C1 (configuration not stated)	108.4
CCOC(=O)N1CCN(C(=O)C(C)C)CC1	94.6
COc1ccc2c(=S)c(-c3ccccn3)c(C)oc2c1	106.0
COc1ccc(N(/N=C2\Sc3ccccc3C2=O)C(C)=O)cc1	110.1
COc1ccc(N(C=O)/C=C2\Sc3ccccc3C2=O)cc1	-14.8*
COc1ccc(N(/C=C2\Sc3ccccc3C2=O)C(=O)c2ccco2)cc1	184.2
O=C(c1ccc(S(=O)(=O)c2ccccc2)nc1)N1CCN(Cc2ccccc2)CC1	103.1
COc1ccc(Cn2nc3c(S(=O)(=O)N4CCOCC4)cccn3c2=O)cc1F	100.1
CCCCCCNC(=O)c1sc(COc2cccc(C)c2)nc1C	105.1
O=C1C=C(C(F)(F)F)c2ccc(NC3CCCCC3)c3cccc1c23	-83.8*
COc1ccccc1-c1noc(-c2ccc(NC3CCCCC3)c([N+](=O)[O-])c2)n1	97.3
O=C1c2ccccc2C(=O)c2c(NC3CCCCC3)ccc(Nc3ccc(Oc4ccccc4)cc3)c21	103.6
C=CCn1c(C)c(/C=C/C2=CCN(C)CC2)c2ccccc21	-11.2*
Cc1cc(N2CCCC2)ccc1/C=C/C1=CCN(C)CC1	113.3
C=CCn1c2ccccc2c2nn(C)c(=S)nc21	106.2
CCn1c(SCC(=O)Nc2ccc(OC)cc2)nnc1-c1cn(C)nc1-c1ccc(Cl)cc1	102.4
C1=C(c2ccc3c(c2)OCO3)Nc2ncnn2C1c1cccs1 (configuration not stated)	-22.3*
CN(C)c1ccc(C2C=C(c3ccccc3)Nc3ncnn32)cc1 (configuration not stated)	134.5
C1=C(c2ccccc2)Nc2ncnn2C1c1cccs1 (configuration not stated)	-24.0*

Some of these compounds in order of molecular weight, smallest number first:
molecule	GIV Gai3 FP
COc1ccc(N=Cc2ccc(N(C)CCC#N)cc2)cc1	101.6
CC(C)(C)C1CCc2c(sc3nc(-c4cc5ccccc5oc4=O)[nH]c(=O)c23)C1 (configuration not stated)	108.4
O=C(c1ccc(S(=O)(=O)c2ccccc2)nc1)N1CCN(Cc2ccccc2)CC1	103.1

The listing continues:
molecule	GIV Gai3 FP
C1=C(c2ccccc2)Nc2ncnn2C1c1ccc2c(c1)OCO2 (configuration not stated)	102.6
Clc1ccc(C2=CC(c3cccs3)n3c(nc4ccccc43)N2)cc1 (configuration not stated)	103.8
CC(=O)C1=C(C)Nc2ncnn2C1c1ccc2c(c1)OCO2 (configuration not stated)	109.6
O=C(/C=C/c1ccccc1)Nc1ccc2nc(SCC(=O)NCC3CCCO3)sc2c1 (configuration not stated)	105.3
CCn1c(C(=O)N2CCC(C(=O)NCc3ccccc3OC)CC2)cc2sccc21	110.2
CCOC(=O)c1cc(-c2ccc(OC)c(S(=O)(=O)NC3CC3)c2)on1	108.0
CC1CCN(CC(=O)Nc2ccccc2Br)CC1	105.8
Cn1cc(C(=O)Oc2cccnc2)c2ccccc2c1=O	108.5
CN(C)c1ccc2c3c(cccc13)C(=O)N(c1nc3ccccc3n1C)C2=O	145.7
CC(=O)NN1C(=O)c2cccc3c(N(C)C)ccc(c23)C1=O	65.6*
O=C(COc1ccc(Cl)cc1Cl)NN1C(=O)c2cccc3c([N+](=O)[O-])ccc(c23)C1=O	100.2
Cc1csc(-c2csc(S(=O)(=O)N3CC=C(c4ccccc4)CC3)c2)n1	99.8
O=c1[nH]c(NC2CCN(Cc3ccccc3)CC2)nc2c1CCCC2	99.5
O=C(NCc1ccc2c(c1)OCO2)C1(S(=O)(=O)c2ccc(Cl)cc2)CC1	102.3
CCCCN(CC)c1ncc(C(=O)O)cc1NS(=O)(=O)c1ccc(Br)cc1	107.8
CCN(CCN(C)C)c1ncc(C(=O)O)cc1NS(=O)(=O)c1ccc(Br)cc1	100.8
CCN(CC)c1ncc(C(=O)O)cc1NS(=O)(=O)c1ccc(Br)cc1	85.4*
O=C(O)C1CCS(=O)(=O)C1 (configuration not stated)	100.7
COc1cccc2c1C(=O)c1c(O)c3c(c(O)c1C2=O)C[C@@](O)(C(=O)CO)C[C@@H]3O[C@H]1C[C@H](N)[C@H](O)[C@H](C)O1	-14.4*
Cc1cccc(OCC(=O)Nc2ccccc2-c2ccc3cc(C)ccc3n2)c1	106.0
CCN(CC)S(=O)(=O)c1ccc2c(c1)cc(C(=O)N1CCN(c3cccc(C)c3)C(C)C1)n2C (configuration not stated)	103.0

Two of the compounds above, as labelled records:
COc1cccc2c1C(=O)c1c(O)c3c(c(O)c1C2=O)C[C@@](O)(C(=O)CO)C[C@@H]3O[C@H]1C[C@H](N)[C@H](O)[C@H](C)O1
  GIV Gai3 FP: -14.4*
CCn1c(C(=O)N2CCC(C(=O)NCc3ccccc3OC)CC2)cc2sccc21
  GIV Gai3 FP: 110.2
